The chains behind the UniProt entries cited, without tags or fusion partners. Where a name states a change or a piece, a line headed by the entry shows the natural chain unless it says otherwise.
UniProt P28335: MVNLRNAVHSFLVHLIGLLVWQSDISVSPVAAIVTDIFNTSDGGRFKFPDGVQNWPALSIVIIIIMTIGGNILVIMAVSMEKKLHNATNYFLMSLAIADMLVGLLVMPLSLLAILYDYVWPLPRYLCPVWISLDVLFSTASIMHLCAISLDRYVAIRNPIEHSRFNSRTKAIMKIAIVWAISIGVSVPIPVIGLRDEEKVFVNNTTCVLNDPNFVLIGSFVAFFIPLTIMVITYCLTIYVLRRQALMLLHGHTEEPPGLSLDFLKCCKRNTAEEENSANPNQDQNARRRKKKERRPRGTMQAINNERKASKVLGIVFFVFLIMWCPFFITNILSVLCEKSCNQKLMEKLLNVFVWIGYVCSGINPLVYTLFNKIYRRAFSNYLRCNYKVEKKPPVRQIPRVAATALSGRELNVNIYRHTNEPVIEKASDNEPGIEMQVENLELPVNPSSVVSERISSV

In publication PMC10046369, “Low-Affinity/High-Selectivity Dopamine Transport Inhibition Sufficient to Rescue Cognitive Functions in the Aging Rat” (Biomolecules, 2023):

Target: T1, 5-HT2C (h) (Homo sapiens, UniProt P28335)
T1 construct: gene HTR2C
Assay: cell-based

Cn1ccc2cc3c(cc21)CCN3C(=O)Nc1cccnc1 [SB 206553]
Kb: 2.9 nM
